Measurements taken from ChEMBL document CHEMBL3608251, “Probing the 'bipolar' nature of the carbonic anhydrase active site: aromatic sulfonamides containing 1,3-oxazol-5-yl moiety as picomolar inhibitors of cytosolic CA I and CA II isoforms” (Eur J Med Chem, 2015).

Experiments:
[1] = species on record: Homo sapiens; assay: Selectivity ratio of Ki for human recombinant carbonic anhydrase 12 to Ki for human recombinant carbonic anhydrase 2
[2] = molecular target: Carbonic anhydrase 2 (Homo sapiens, UniProt P00918); assay: Inhibition of human recombinant carbonic anhydrase 2 preincubated for 15 mins by stopped flow CO2 hydration method
[3] = species on record: Homo sapiens; assay: Selectivity ratio of Ki for human recombinant carbonic anhydrase 9 to Ki for human recombinant carbonic anhydrase 2
[4] = species on record: Homo sapiens; assay: Selectivity ratio of Ki for human recombinant carbonic anhydrase 1 to Ki for human recombinant carbonic anhydrase 2

In the case of Cc1ncc(-c2ccc(S(N)(=O)=O)cc2)o1, the Ratio Ki [1] is reported as 100, the Ki [2] is reported as 0.05 nM and the Ratio Ki [3] is reported as 100. For the same molecule, the Ratio Ki [4] was 100.
